Data on two substances can be found in PMC4949548.

Test [1] addresses YFP‐LhaA (Rhodobacter sphaeroides 2.4.1). In words: FRET or BRET; fluorescence lifetime microscopy of pelleted membranes in 20 mM HEPES pH 8 sparged with nitrogen; lifetime of the CFP donor at 480 nm; CFP and SYFP2 on LhaA and on RC-H.
Test [2] deals with CFP‐LhaA (Rhodobacter sphaeroides 2.4.1). The test is described as above.

“RC‐CFP (from UniProt Q3J170 1-260) (natural protein)”: in test [1], the CFP donor lifetime τ1 with the acceptor was determined as 1.36 ns, the CFP donor lifetime τ2 with the acceptor turned out to be 0.51 ns, the CFP donor lifetime τ3 with the acceptor was found to be 0.32 ns and the amplitude averaged CFP donor lifetime τav with the acceptor amounted to 0.62 ns.

In test [2], “RC‐YFP (from UniProt Q3J170 1-260) (natural protein)” registered a CFP donor lifetime τ1 with the acceptor of 1.57 ns, a CFP donor lifetime τ2 with the acceptor of 0.16 ns, an FRET efficiency of 70% and an amplitude averaged CFP donor lifetime τav with the acceptor of 0.26 ns.
